The record followed here is ChEMBL document CHEMBL3885881, “DrugMatrix”.

The species entered for the series is Rattus norvegicus. Briefly: DrugMatrix - Regimen: Daily Repeat. It counts as toxicity, organism-based, Sprague-Dawley. The arrangement: regimen Daily Repeat, gender Male, age 6-8 weeks. Conditions: in vivo.
Setting [1] is: ip, 0 mg/kg, […], tissue Plasma, route intraperitoneal, dose level Control, time 14 day, vehicle 100 % SALINE.
[2] abbreviates: po, […], 72 h, tissue Plasma, route oral GAVAGE, dose 0.77 mg/Kg, dose level Low, time 3 day, vehicle .5 % CMC.
Where [3] appears, read: po, […], 72 h, tissue Plasma, route oral GAVAGE, dose 7.5 mg/Kg, dose level High, time 3 day, vehicle .5 % CMC.

GENTAMICIN: under setting [1], the ALBUMIN worked out at 4.05 G/DL and the “URIC ACID” value is recorded as 1.57 mg/dL. The CHLORIDE (ip, 0 mg/kg, […], tissue Plasma, route intraperitoneal, dose level Control, time 28 day, vehicle 100 % SALINE) is reported as 105.4 MEQ/L. For the same sequence, where the note is “sc, 34 mg/kg, 120 h, tissue Blood, route subcutaneous, dose level Low, time 5 day, […]”, the HEMATOCRIT is 37.5%.

Under setting [2], IVERMECTIN had an ALBUMIN of 3.47 G/DL and a GLUCOSE of 161.67 mg/dL. Moreover, under setting [3], the ALBUMIN worked out at 3.63 G/DL and the GLUCOSE is 169 mg/dL.

For the sequence COLISTIN, the ALBUMIN reads like this: (po, 0 mg/kg, 72 h, tissue Plasma, route oral GAVAGE, dose level Control, time 3 day, vehicle 100 % WATER) 3.75 G/DL; (po, 0 mg/kg, 120 h, tissue Plasma, route oral GAVAGE, dose level Control, time 5 day, vehicle 100 % WATER) 3.73 G/DL; (po, 24 mg/kg, 120 h, tissue Plasma, route oral GAVAGE, dose level Low, time 5 day, vehicle 100 % WATER) 3.73 G/DL. Besides, for the setting “po, 0 mg/kg, 120 h, tissue Blood, route oral GAVAGE, dose level Control, time 5 day, vehicle 100 % WATER”, the “MEAN CORPUSCULAR HEMOGLOBIN CONCENTRATION” value was 39.44 G/DL.
